Test results: patent US20230381223A1, “ORAL PYROPHOSPHATE FOR USE IN REDUCING CALCIFICATION” (PYROGENYX INC., priority 2020, published 2023)

Settings: mice, gastric gavage, dose equivalent to 39 mg/kg PPi, n≥3 per timepoint

Substance: lysine pyrophosphate 1:1 salt [monolysine-H2P2O7]
- peak plasma PPi concentration (maximum of the absorption curve): 13.5 ± 1.3 µM
